Data as given in patent publication US20250059229A1, “Compositions and Methods for Selective Labeling of Secondary Amines” (Emory University, priority 2021, published 2025).

Experiment: Solubility of ethyne phenyldiazonium probes under aqueous reaction conditions
Conditions: aqueous solution; ACN:sodium phosphate buffer (1:9)

2-ethyne phenyldiazonium ion
solubility: limited solubility

2-ethynyl-5-(methoxycarbonyl)benzene diazonium
solubility: high solubility
